## Apparent affinities of Ab-14 variants for a coronavirus HR2 peptide

The measurements come from Li et al. 2023 (doi:10.1038/s41467-023-39022-2) through the FLAb antibody collection.

Target peptide (SARS-CoV-2 spike, HR2 region): PDVDLGDISGINAS

Parent: Ab-14, a human scFv built as VH, three GGGGS repeats, VL. Only the CDRs of the heavy chain vary.
VH: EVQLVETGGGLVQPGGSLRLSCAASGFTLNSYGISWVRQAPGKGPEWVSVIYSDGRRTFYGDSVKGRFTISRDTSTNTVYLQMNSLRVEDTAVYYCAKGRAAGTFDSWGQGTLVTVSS
VL: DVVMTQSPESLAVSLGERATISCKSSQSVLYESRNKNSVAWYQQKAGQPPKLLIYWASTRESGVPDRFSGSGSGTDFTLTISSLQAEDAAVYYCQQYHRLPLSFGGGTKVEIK

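The starting antibody came from a phage panning campaign against this peptide. This is the validation round: designs drawn from the data on random variants, tested in the same kind of assay. Group labels follow the data file (Ctrl: baseline library sampled from a position-specific scoring matrix, with some repeated check sequences; GPLM: also part of the Gaussian process libraries; Gibbs: Gibbs sampling; a sequence that several methods proposed may carry one label only). The assay is AlphaSeq: two haploid yeast populations carry antibody and antigen on their surface. Mating (16 h, 30 °C) was followed by selection of diploids and sequencing of their barcodes. Scores were corrected for input abundance and mapped to Kd with protein pairs of known affinity run in the same pool. There are six technical replicates.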

The parent's heavy chain CDRs are GFTLNSYGIS, VIYSDGRRTFYGDSVK, GRAAGTFDS; each variant's own CDRs replace them letter for letter. The read-out is the apparent dissociation constant on a log10 scale (nM): the lower, the stronger. A mean of the replicates is given; it leaves out those without a signal. Where no diploid with the target was found in that replicate, the entry reads "ND": below detection, most likely a poor binder, though not proof of it. The parent sequence was in this pool as ten entries: three were never detected, three once, and four in most replicates, with averages from 0.34 to 2.37. The authors averaged sequences with at least three values out of six and counted those with two or fewer as poor binders. Background: pairings of all heavy chain designs with three empty control strains gave a value in 1% of cases (median 2.08, 5th percentile 0.84). Values in that range, when seen in few replicates, are hard to tell from nonspecific mating. For each scFv, signals with the empty controls are counted beside the result, with their mean in brackets. Some sequences occur more than once in the pool; their replicates are listed entry by entry, parted by semicolons. Values of this round are not directly comparable with the first-round values of the same sequences.

{"CDR-H1": "GFTLNSYGIS", "CDR-H2": "VIYSDGRRTFYSDSVR", "CDR-H3": "GRAAGTFDL", "group": "Ctrl", "log10 Kd (nM) by replicate": "1.25 / 0.95 / 2.38 / 1.91 / 0.95 / 0.93", "mean, log10 nM": "1.40", "control signals": "0/18"}
{"CDR-H1": "GFTLNGYGIS", "CDR-H2": "VMYLDGRRTFYGDSFK", "CDR-H3": "GTAAGTFMS", "group": "Ctrl", "log10 Kd (nM) by replicate": "ND / ND / ND / ND / ND / ND", "mean, log10 nM": "ND", "control signals": "2/18 (2.66)"}
{"CDR-H1": "GFTLNSYGIS", "CDR-H2": "VIYSDGRRTFIGDSVK", "CDR-H3": "GRAAGTFDS", "group": "Ctrl", "log10 Kd (nM) by replicate": "ND / ND / 1.59 / ND / ND / ND", "mean, log10 nM": "1.59", "control signals": "0/18"}
{"CDR-H1": "GFTLNSYGIS", "CDR-H2": "VIYSDGRRQAYQDSVK", "CDR-H3": "GSAAGTFDS", "group": "Ctrl", "log10 Kd (nM) by replicate": "1.93 / ND / 0.92 / 0.91 / 0.71 / 0.67", "mean, log10 nM": "1.03", "control signals": "0/18"}
{"CDR-H1": "GFTLNSYGIS", "CDR-H2": "VIYSDGRRTFYGDKFK", "CDR-H3": "GRATGTFDS", "group": "Ctrl", "log10 Kd (nM) by replicate": "ND / ND / ND / ND / ND / ND", "mean, log10 nM": "ND", "control signals": "0/18"}
{"CDR-H1": "GFTVNSYGIS", "CDR-H2": "VIYSDGRRTFYGDSVK", "CDR-H3": "GRAAGFFDS", "group": "Ctrl", "log10 Kd (nM) by replicate": "ND / ND / ND / ND / ND / ND", "mean, log10 nM": "ND", "control signals": "0/18"}
{"CDR-H1": "GFTLNQYGIS", "CDR-H2": "VIYADGRRTAYGDSVK", "CDR-H3": "GRAAGSFDS", "group": "Ctrl", "log10 Kd (nM) by replicate": "-0.12 / -0.12 / 0.46 / -0.44 / 0.08 / 0.04", "mean, log10 nM": "-0.02", "control signals": "1/18 (2.58)"}
{"CDR-H1": "GFTLNSYGIS", "CDR-H2": "VIYSDGRRTQYGDRVK", "CDR-H3": "GRAAGTFDV", "group": "Ctrl", "log10 Kd (nM) by replicate": "ND / ND / ND / ND / ND / ND", "mean, log10 nM": "ND", "control signals": "1/18 (2.22)"}
{"CDR-H1": "GETLNSYGIS", "CDR-H2": "VIYSDGRRTFYGDAVK", "CDR-H3": "GRAAGTFDS", "group": "Ctrl", "log10 Kd (nM) by replicate": "0.97 / 1.83 / ND / 1.20 / 1.77 / 1.91", "mean, log10 nM": "1.53", "control signals": "0/18"}
{"CDR-H1": "GFTLNEYGIS", "CDR-H2": "VIYSDGHRTFYGDSVK", "CDR-H3": "HRNAGWFDS", "group": "Ctrl", "log10 Kd (nM) by replicate": "0.77 / -0.22 / -0.27 / 0.22 / 0.32 / 0.01", "mean, log10 nM": "0.14", "control signals": "0/18"}
{"CDR-H1": "GFTLNSYGIS", "CDR-H2": "VIYSDGRRTFYGDSVK", "CDR-H3": "GFNAGQFDS", "group": "Ctrl", "log10 Kd (nM) by replicate": "ND / ND / ND / ND / ND / ND", "mean, log10 nM": "ND", "control signals": "0/18"}
{"CDR-H1": "GFELNSYGIS", "CDR-H2": "VIYSDGRRTFYDDSVK", "CDR-H3": "GRAAGTFDV", "group": "Ctrl", "log10 Kd (nM) by replicate": "0.73 / 0.54 / 0.28 / 0.71 / 0.94 / 1.19", "mean, log10 nM": "0.73", "control signals": "0/18"}
{"CDR-H1": "GFTLNSYGIS", "CDR-H2": "VIYSDGRRTFYGDSVK", "CDR-H3": "GRHIGTFDS", "group": "Ctrl", "log10 Kd (nM) by replicate": "1.16 / ND / ND / ND / 1.05 / 0.81", "mean, log10 nM": "1.00", "control signals": "0/18"}
{"CDR-H1": "GFTLNSYGIS", "CDR-H2": "VIYSDGRRTFYKDSVK", "CDR-H3": "GRAAGYFSS", "group": "Ctrl", "log10 Kd (nM) by replicate": "ND / ND / ND / ND / ND / ND", "mean, log10 nM": "ND", "control signals": "0/18"}
{"CDR-H1": "GFTVNQYGIS", "CDR-H2": "VIYSDGIRTFYGDSVK", "CDR-H3": "GRAAGTFDS", "group": "Ctrl", "log10 Kd (nM) by replicate": "ND / 1.49 / 2.33 / 1.80 / 1.32 / 1.59", "mean, log10 nM": "1.71", "control signals": "0/18"}
{"CDR-H1": "GKTLNEYGIS", "CDR-H2": "VIYSDGRRTFYGDSVK", "CDR-H3": "GTAAGTFDS", "group": "Ctrl", "log10 Kd (nM) by replicate": "ND / ND / ND / ND / ND / ND", "mean, log10 nM": "ND", "control signals": "0/18"}
{"CDR-H1": "GFTLNSYGIS", "CDR-H2": "VIYSDGRRTFYGNSVK", "CDR-H3": "GKAAGTFDM", "group": "Ctrl", "log10 Kd (nM) by replicate": "ND / ND / 1.22 / ND / ND / ND", "mean, log10 nM": "1.22", "control signals": "0/18"}
{"CDR-H1": "GQTLNSYGRS", "CDR-H2": "VIYADGRRTFYGDSVK", "CDR-H3": "GRAAGTFDT", "group": "Ctrl", "log10 Kd (nM) by replicate": "ND / ND / ND / ND / ND / ND", "mean, log10 nM": "ND", "control signals": "0/18"}
{"CDR-H1": "GETLNSYGIS", "CDR-H2": "VIYSDGRRTFYGDSVK", "CDR-H3": "GRARGYFMS", "group": "Ctrl", "log10 Kd (nM) by replicate": "ND / ND / ND / ND / ND / ND", "mean, log10 nM": "ND", "control signals": "1/18 (1.38)"}
{"CDR-H1": "GFTINSYGIS", "CDR-H2": "VIYSDGRRTFYGDSVK", "CDR-H3": "GRVAGTFDS", "group": "Ctrl", "log10 Kd (nM) by replicate": "ND / ND / ND / ND / ND / ND", "mean, log10 nM": "ND", "control signals": "0/18"}
{"CDR-H1": "GFTLNSYGIS", "CDR-H2": "VIYSDGRRTFYYDSVK", "CDR-H3": "GTAAGTFDS", "group": "Ctrl", "log10 Kd (nM) by replicate": "ND / ND / ND / ND / ND / ND", "mean, log10 nM": "ND", "control signals": "0/18"}
{"CDR-H1": "GFTLNSYGIS", "CDR-H2": "VIYSDGRRTFYGDSVK", "CDR-H3": "GQAAGTFDT", "group": "Ctrl+GPLM_Gibbs", "log10 Kd (nM) by replicate": "ND / 1.99 / 0.73 / 2.12 / 1.09 / ND; 2.38 / 1.19 / 1.17 / ND / 1.20 / 1.87", "mean, log10 nM": "1.53", "control signals": "0/36"}
{"CDR-H1": "GRTLNEYGIS", "CDR-H2": "VIYADGRRTFYGDSVR", "CDR-H3": "NKEAGTFDS", "group": "Ctrl", "log10 Kd (nM) by replicate": "ND / ND / ND / ND / ND / ND", "mean, log10 nM": "ND", "control signals": "1/18 (3.97)"}

A selection of 2 entries from above:

{"CDR-H1": "GFTLNSYGIS", "CDR-H2": "VIYSDGRRTFYGDSVK", "CDR-H3": "GFNAGQFDS", "group": "Ctrl", "log10 Kd (nM) by replicate": "ND / ND / ND / ND / ND / ND", "mean, log10 nM": "ND", "control signals": "0/18"}
{"CDR-H1": "GFTLNSYGIS", "CDR-H2": "VIYSDGRRQAYQDSVK", "CDR-H3": "GSAAGTFDS", "group": "Ctrl", "log10 Kd (nM) by replicate": "1.93 / ND / 0.92 / 0.91 / 0.71 / 0.67", "mean, log10 nM": "1.03", "control signals": "0/18"}